Measurements published in US20080009485A1, “Methods for the use of inhibitors of cytosolic phospholipase A2 in the treatment of thrombosis” (Wyeth, priority 2006, published 2008).

Assays:
[1] = test system: Sprague Dawley outbreed rats; details: 100 mg/kg oral gavage 2 hours before injury, flow recorded 30 minutes, controls occluded within 15-30 minutes
serum thromboxane B2 = details: ApoE knockout mice, 3.3 mg per gram chow ad libitum
human platelets = details: 10 μM ADP
[2] = test system: Human platelet aggregation; assay: Platelet Function Analyzer (PFA-100) study, whole human blood in vitro; type: cell-based; details: Collagen/Epinephrine cartridges, maximum closure time 300 seconds
Excerpt: Platelet Function Analyzer (PFA-100®) Study

SMILES: O=C(O)c1ccc(CCCc2c(CCNS(=O)(=O)Cc3ccc(Cl)c(Cl)c3)n(C(c3ccccc3)c3ccccc3)c3ccc(Cl)cc23)cc1 [Example 44]
- carotid artery blood flow / occlusion after FeCl3 injury [1]: a reduction of blood flow, but no occlusion
- average reduction in serum thromboxane B2 levels compared to control mice (serum thromboxane B2): 56%
- concentration down to which complete blockade of the ATP release reaction was observed (human platelets; human whole blood): ≤ 0.3 µg/mL
- inhibition of platelet dense granule ATP release reaction (human platelets; whole human blood, Example 44 tested from 0.31 to 5 μg/ml): able to attenuate the release reaction at all concentrations tested
- concentration giving maximal prolongation of PFA-100 closure time [2]: approximately 2.5 μg/ml
